Assay: Storage stability, nicotine degradation products by reversed-phase liquid chromatography
Conditions: storage at 25° C./60% RH

CN1CCCC1c1cccnc1.O.O.O=C(O)C(O)C(O)C(=O)O (stereo not shown) [nicotine bitartrat dihydrate, nicotine bitartrate dihydrate]
stability of the nicotine salt in the product: stable

From patent publication US9402810B2, “Pouch containing nicotine in free salt form” (TILLCE AB, priority 2011, dated 2016)
